Consider one compound from PubChem BioAssay (EPA / NIEHS).

Protein sequences, listed by entry. Tags and fused reporters are not part of them.
UniProt P10415, whole entry: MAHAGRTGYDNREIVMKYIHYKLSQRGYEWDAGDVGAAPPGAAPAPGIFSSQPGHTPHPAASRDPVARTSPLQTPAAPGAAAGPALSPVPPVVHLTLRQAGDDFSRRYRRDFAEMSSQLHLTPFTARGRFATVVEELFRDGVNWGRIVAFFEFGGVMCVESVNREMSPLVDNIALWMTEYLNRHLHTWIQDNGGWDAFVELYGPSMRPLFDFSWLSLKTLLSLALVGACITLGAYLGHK
UniProt P42574, whole entry: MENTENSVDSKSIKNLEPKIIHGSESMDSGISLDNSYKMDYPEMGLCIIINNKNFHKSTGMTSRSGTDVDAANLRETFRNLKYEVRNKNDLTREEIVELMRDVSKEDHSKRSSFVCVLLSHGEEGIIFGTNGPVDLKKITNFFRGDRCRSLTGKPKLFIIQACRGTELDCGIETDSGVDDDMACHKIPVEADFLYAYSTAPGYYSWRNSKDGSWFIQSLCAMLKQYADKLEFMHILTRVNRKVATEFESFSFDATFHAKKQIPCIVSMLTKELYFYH
UniProt P33261, whole entry: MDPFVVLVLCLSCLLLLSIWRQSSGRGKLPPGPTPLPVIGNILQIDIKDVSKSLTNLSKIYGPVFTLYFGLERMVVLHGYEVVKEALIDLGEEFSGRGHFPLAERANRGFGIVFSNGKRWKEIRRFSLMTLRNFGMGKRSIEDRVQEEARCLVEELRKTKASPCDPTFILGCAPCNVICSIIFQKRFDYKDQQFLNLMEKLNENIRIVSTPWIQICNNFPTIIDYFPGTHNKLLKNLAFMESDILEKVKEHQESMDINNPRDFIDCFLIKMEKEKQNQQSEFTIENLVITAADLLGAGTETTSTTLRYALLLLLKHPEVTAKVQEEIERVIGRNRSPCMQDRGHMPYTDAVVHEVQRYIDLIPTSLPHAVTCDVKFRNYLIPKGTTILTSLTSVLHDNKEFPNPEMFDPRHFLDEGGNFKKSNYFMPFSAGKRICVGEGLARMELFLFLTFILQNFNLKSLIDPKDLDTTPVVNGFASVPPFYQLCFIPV

The term AC50 denotes the midpoint of the concentration-response curve, whichever way the signal moves.

Details in all cases: actives raise or lower the signal; mRNA level, 48 h
Read-out in experiment [1]: Apoptosis regulator Bcl-2 (Homo sapiens) (UniProt P10415)
Nature of the experiment: LTEA_HepaRG_BCL2: Life Technologies and Expression Analysis (LTEA) Assay for Bcl-2 gene using HepaRG (AID 2283475). The method in brief:
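Differentiated human HepaRG cells in serum-free induction medium exposed 48 h, in duplicate, to 8-point half-log series from 100 uM in 0.5% DMSO. BCL2 mRNA by qRT-PCR (TaqMan/Fluidigm), normalized to ACTB, GAPDH, POLR2A; bidirectional fit against DMSO.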

Read-out in experiment [2]: Bcl-2 (BID) gene, BID (gene 637)
Nature of the experiment: LTEA_HepaRG_BID: Life Technologies and Expression Analysis (LTEA) Assay for Bcl-2 (BID) gene using HepaRG (AID 2283476). The gist of the method:
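Gene expression by qRT-PCR in HepaRG cells after 48 h exposure, duplicate wells, eight half-log concentrations topping at 100 uM in 0.5% DMSO. Normalized to ACTB, GAPDH, POLR2A; bidirectional fitting relative to DMSO.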

Read-out in another experiment: Caspase-3 (Homo sapiens) (UniProt P42574)
Nature of the experiment: LTEA_HepaRG_CASP3: Life Technologies and Expression Analysis (LTEA) Assay for cysteine-aspartic acid protease (CASP3) using HepaRG (AID 2283477). The method in brief:
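HepaRG, 48 h exposure, 8 conc. (top 100 uM, half-log steps, duplicate), 0.5% DMSO vehicle; qRT-PCR of CASP3 transcript, housekeeping-normalised (ACTB/GAPDH/POLR2A); bidirectional curve fit vs DMSO baseline.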

Read-out in experiment [3]: Cytochrome P450 (CYP24A1), CYP24A1 (gene 1591)
The experiment is described as follows: LTEA_HepaRG_CYP24A1: Life Technologies and Expression Analysis (LTEA) Assay for Cytochrome P450 (CYP24A1) using HepaRG (AID 2283478). The protocol:
(§1) LTEA_HepaRG is a cell based, multiplexed-readout assay that uses HepaRG, a human liver cell line, with measurements taken at 48 hours after chemical dosing on a 96-well plate.LTEA_HepaRG_CYP24A1 is one of 102 assay component(s) measured in the LTEA HepaRG cell culture assay. It is a marker of NR mediated metabolism.Data from the assay component LTEA_HepaRG_CYP24A1 was analyzed into 1 endpoint. This assay endpoint, LTEA_HepaRG_CYP24A1, was analyzed with bidirectional fitting relative to DMSO as the negative control and baseline of activity. Using a type of inducible reporter, measures of mRNA induction for gain or loss-of-signal activity can be used to understand regulation of transcription factor activity. To generalize the intended target to other relatable targets, this assay endpoint is annotated to the cyp intended target family, where the subfamily is xenobiotic metabolism.
(§2) A total of 1060 chemcials from the ToxCast library were tested in eight-point concentration-response experiments. Cell culture and cytotoxicity assays were conducted at Thermo Fisher Scientific's Custom Services facility (Madison, WI). […] Fluidigm's 96.96 Dynamic ArrayTM (Fluidigm, Amsterdam, the Netherlands) technology was used for gene expression analyses by quantitative reverse transcription polymerase chain reaction (qRT-PCR, performed by Quintiles/Expression Analysis, Durham, NC)89. […]

Read-out in experiment [4]: Cytochrome P450 (CYP1A2), CYP1A2 (gene 1544)
The experiment is described as follows: LTEA_HepaRG_CYP1A2: Life Technologies and Expression Analysis (LTEA) Assay for Cytochrome P450 (CYP1A2) using HepaRG (AID 2283479). The gist of the method:
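HepaRG, 48 h exposure, top 100 uM, half-log 8-pt, 0.5% DMSO vehicle, duplicates. Readout: TaqMan qRT-PCR of CYP1A2 mRNA, housekeeping-normalized (ACTB/GAPDH/POLR2A). Gain/loss fit relative to DMSO baseline.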

Read-out in experiment [5]: cysteine-aspartic acid protease (CASP8), CASP8 (gene 841)
The experiment is described as follows: LTEA_HepaRG_CASP8: Life Technologies and Expression Analysis (LTEA) Assay for cysteine-aspartic acid protease (CASP8) using HepaRG (AID 2283480). How it is done: as §1, with “plate.LTEA_HepaRG_CASP8” for “plate.LTEA_HepaRG_CYP24A1”, “Cell proliferation, survival, death.Data” for “NR mediated metabolism.Data”, “LTEA_HepaRG_CASP8” for “LTEA_HepaRG_CYP24A1”, “LTEA_HepaRG_CASP8,” for “LTEA_HepaRG_CYP24A1,”, “protease” for “cyp”, “cysteine protease.” for “xenobiotic metabolism.”
as §2

Read-out in experiment [6]: Cytochrome P450 (CYP2B6), CYP2B6 (gene 1555)
The experiment is described as follows: LTEA_HepaRG_CYP2B6: Life Technologies and Expression Analysis (LTEA) Assay for Cytochrome P450 (CYP2B6) using HepaRG (AID 2283481). The protocol:
as §1, with “plate.LTEA_HepaRG_CYP2B6” for “plate.LTEA_HepaRG_CYP24A1”, “LTEA_HepaRG_CYP2B6” for “LTEA_HepaRG_CYP24A1”, “LTEA_HepaRG_CYP2B6,” for “LTEA_HepaRG_CYP24A1,”
as §2

Read-out in experiment [7]: Cytochrome P450 2C19 (Homo sapiens) (UniProt P33261)
The experiment is described as follows: LTEA_HepaRG_CYP2C19: Life Technologies and Expression Analysis (LTEA) Assay for CYP2C19 using HepaRG (AID 2283482). The gist of the method:
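HepaRG, 48 h chemical exposure, 8-pt half-log series from 100 uM in 0.5% DMSO, duplicates. Readout: CYP2C19 mRNA by TaqMan qRT-PCR, housekeeping-normalized. Bidirectional fit vs DMSO baseline; phenobarbital 1mM as induction control.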

Read-out in a further experiment: CYP2C8 (gene 1558)
The experiment is described as follows: LTEA_HepaRG_CYP2C8: Life Technologies and Expression Analysis (LTEA) Assay for CYP2C8 using HepaRG (AID 2283483). The method in brief: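 CYP2C8 mRNA induction or loss, by qRT-PCR normalized to ACTB/GAPDH/POLR2A, is read in HepaRG cells after 48 h treatment. Concentrations run from 100 uM down in half-log dilutions, with 0.5% DMSO as vehicle and baseline.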

Read-out in another experiment: CYP2C9 (gene 1559)
Nature of the experiment: LTEA_HepaRG_CYP2C9: Life Technologies and Expression Analysis (LTEA) Assay for CYP2C9 using HepaRG (AID 2283484). The gist of the method:
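Cells plated 48 h, switched to serum-free induction medium, then treated in duplicate for 48 h at eight concentrations (max 100 uM, 0.5% DMSO). RNA then analysed by qRT-PCR for CYP2C9; curves fitted in both directions relative to DMSO.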

The entries are a selection whose mix differs from that of the whole data set. Active and inactive are the calls of the source. How the source made its calls: active means hit-call score of the fitted dose curve at least 0.9, where 1 is the maximum; inactive means score below 0.9.

Turning to `O=[N+]([O-])c1ccccc1[N+](=O)[O-]`, the AC50 was active: 50 µM in experiment [1], active: 50 µM in [4] and active: 6.03 µM in experiment [6]. In addition, the compound was classed as inactive (in experiment [2]; with Caspase-3 (Homo sapiens); in [3]; in experiment [5]; in experiment [7]; with CYP2C8 (gene 1558)). Besides, the call with CYP2C9 (gene 1559) was inactive.
